Laboratory results: patent publication US20190092792A1, “VINORELBINE MONOTARTRATE AND ITS PHARMACEUTICAL USE” (priority 2016, published 2019)

Experiment: Comparable stressing stability study at 60° C. (total degradation impurities by HPLC)
Type: physicochemical
Details: for Total degradation impurities: 60° C.
Protocol: The degradation impurities are determined after a specific amount of time of incubation by means of HPLC.
The term “degradation impurities”, as used herein, is to be understood such a sample of the relevant product is subjected to HPLC analysis and calculation of the content of impurities in Vinorelbine is performed according to the method described in European Pharmacopoeia 7.0.
HPLC analysis and calculation of the content of impurities in Vinorelbine were performed according to the method described in European Pharmacopoeia 7.0.

## vinorelbine monotartrate isopropanol solvate
1 week
  Total degradation impurities: LT 0.05%
3 weeks
  Total degradation impurities: 0.05%
8 weeks
  Total degradation impurities: 0.15%
One week storage at 60° C.
  chemical degradation (in words): didn't show any chemical degradation
